Test results: ChEMBL document CHEMBL5500417, “Discovery of Novel 2-Oxoacetamide Derivatives as B3GAT3 Inhibitors for the Treatment of Hepatocellular Carcinoma” (J Med Chem, 2024)
Active and inactive are the calls of the source. The calls are words filed in the database; no cut-off is given here.

Experiments:
[1] = test system: MHCC97H; test: Induction of apoptosis in human MHCC97H cells assessed as increase in c-caspase-3 at 5 to 10 uM measured after 48 hrs by Western blot analysis; format: functional, cell-based; details: dose 5-10 µM
[2] = test system: HCCLM3; test: Inhibition of colony formation in human HCCLM3 cells at 10 uM measured after 14 days by crystal violet staining based microscopy; format: functional, cell-based; details: time 14.0 day
[3] = test system: MHCC97H; test: Induction of apoptosis in human MHCC97H cells assessed as increase in active cleaved-poly [ADP-ribose] polymerase (c-PARP) at 5 to 10 uM measured after 48 hrs by Western blot analysis; format: functional, cell-based; details: dose 5-10 µM
[4] = test system: HCCLM3; test: Inhibition of cell migration in human HCCLM3 cells assessed as suppression of wound healing at 10 uM measured after 24 hrs by Transwell Cell Migration Assay (reference value: 15.71%); format: functional
[5] = test system: HCCLM3; test: Induction of apoptosis in human HCCLM3 cells assessed as increase in c-caspase-3 at 5 to 10 uM measured after 48 hrs by Western blot analysis; format: functional, cell-based; details: dose 5-10 µM
[6] = test system: MHCC97H; test: Inhibition of colony formation in human MHCC97H cells at 10 uM measured after 14 days by crystal violet staining based microscopy; format: functional, cell-based; details: time 14.0 day
[7] = test system: HCCLM3; test: Induction of apoptosis in human HCCLM3 cells assessed as increase in active cleaved-poly [ADP-ribose] polymerase (c-PARP) at 5 to 10 uM measured after 48 hrs by Western blot analysis; format: functional, cell-based; details: dose 5-10 µM
[8] = test system: MHCC97H; test: Inhibition of cell migration in human MHCC97H cells assessed as suppression of wound healing at 10 uM measured after 24 hrs by Transwell Cell Migration Assay (reference value: 22.22%); format: functional
[9] = test system: MHCC97H; test: Induction of ZEB1 protein expression in human MHCC97H cells at 5 to 10 uM measured after 48 hrs incubation by Western blot analysis; format: functional, cell-based; details: dose 5-10 µM
[10] = test system: HCCLM3; test: Inhibition of colony formation in human HCCLM3 cells measured after 14 days by crystal violet staining based microscopy; format: functional, cell-based; details: dose 0.625-10 µM, time 14.0 day
[11] = test system: MHCC97H; test: Reduction of cell cycle promoting protein expression in human MHCC97H cells assessed as increase in CDK6 expression measured after 48 hrs by Western blot analysis; format: functional, cell-based; details: dose 5-10 µM
[12] = test system: HCCLM3; test: Reduction of cell cycle promoting protein expression in human HCCLM3 cells assessed as increase in CDK6 expression measured after 48 hrs by Western blot analysis; format: functional, cell-based; details: dose 5-10 µM
[13] = test system: HCCLM3; test: Reduction in cell-division in human HCCLM3 cells by measuring carboxyfluorescein succinimidyl ester (CFSE) at 5 to 10 uM measured after 24 hrs by flow cytometry; format: functional, cell-based; details: dose 5-10 µM
[14] = test system: HCCLM3; test: Induction of ZEB1 protein expression in human HCCLM3 cells at 5 to 10 uM measured after 48 hrs incubation by Western blot analysis; format: functional, cell-based; details: dose 5-10 µM
[15] = test system: MHCC97H; test: Induction of MMP9 protein expression in human MHCC97H cells at 5 to 10 uM measured after 48 hrs incubation by Western blot analysis; format: functional, cell-based; details: dose 5-10 µM
[16] = test system: MHCC97H; test: Induction of cell cycle related protein expression in human MHCC97H cells assessed as increase in retinoblastoma-associated protein (Rb) expression at 5 to 10 uM measured after 48 hrs by Western blot analysis; format: functional, cell-based; details: dose 5-10 µM
[17] = test system: HCCLM3; test: Induction of MMP2 protein expression in human HCCLM3 cells at 5 to 10 uM measured after 48 hrs incubation by Western blot analysis; format: functional, cell-based; details: dose 5-10 µM
[18] = test system: MHCC97H; test: Induction of E-cadherin protein expression in human MHCC97H cells at 5 to 10 uM measured after 48 hrs incubation by Western blot analysis; format: functional, cell-based; details: dose 5-10 µM
[19] = test system: HCCLM3; test: In vivo-antitumor activity against human HCCLM3 cells xenografted BALB/c mouse model assessed as reduction in Ki-67 protein at 10 mg/kg, IG once daily measured after 31 days relative to control; format: functional, organism-based; details: time 31.0 day
[20] = test system: HCCLM3; test: Induction of cell cycle related protein expression in human HCCLM3 cells assessed as increase in p21 expression at 5 to 10 uM measured after 48 hrs by Western blot analysis; format: functional, cell-based; details: dose 5-10 µM
[21] = test system: HCCLM3; test: Induction of E-cadherin protein expression in human HCCLM3 cells at 5 to 10 uM measured after 48 hrs incubation by Western blot analysis; format: functional, cell-based; details: dose 5-10 µM
[22] = test system: MHCC97H; test: Reduction in cell-division in human MHCC97H cells by measuring carboxyfluorescein succinimidyl ester (CFSE) at 5 to 10 uM measured after 24 hrs by flow cytometry; format: functional, cell-based; details: dose 5-10 µM
[23] = test system: MHCC97H; test: Induction of cell cycle related protein expression in human MHCC97H cells assessed as increase in p21 expression at 5 to 10 uM measured after 48 hrs by Western blot analysis; format: functional, cell-based; details: dose 5-10 µM
[24] = test system: HCCLM3; test: Reduction of cell cycle promoting protein expression in human HCCLM3 cells assessed as increase in cyclin E1 expression measured after 48 hrs by Western blot analysis; format: functional, cell-based; details: dose 5-10 µM
[25] = test system: HCCLM3; test: Induction of cell cycle related protein expression in human HCCLM3 cells assessed as increase in retinoblastoma-associated protein (Rb) expression at 5 to 10 uM measured after 48 hrs by Western blot analysis; format: functional, cell-based; details: dose 5-10 µM
[26] = test system: HCCLM3; test: Induction of MMP9 protein expression in human HCCLM3 cells at 5 to 10 uM measured after 48 hrs incubation by Western blot analysis; format: functional, cell-based; details: dose 5-10 µM
[27] = test system: HCCLM3; test: Induction of cell cycle related protein expression in human HCCLM3 cells assessed as increase in p53 expression at 5 to 10 uM measured after 48 hrs by Western blot analysis; format: functional, cell-based; details: dose 5-10 µM
[28] = test system: MHCC97H; test: Induction of MMP2 protein expression in human MHCC97H cells at 5 to 10 uM measured after 48 hrs incubation by Western blot analysis; format: functional, cell-based; details: dose 5-10 µM
[29] = test system: HCCLM3; test: Reduction of cell cycle promoting protein expression in human HCCLM3 cells assessed as increase in phosphorylated-Rb expression measured after 48 hrs by Western blot analysis; format: functional, cell-based; details: dose 5-10 µM
[30] = test system: MHCC97H; test: Reduction of cell cycle promoting protein expression in human MHCC97H cells assessed as increase in phosphorylated-Rb expression measured after 48 hrs by Western blot analysis; format: functional, cell-based; details: dose 5-10 µM
[31] = test system: MHCC97H; test: Reduction of cell cycle promoting protein expression in human MHCC97H cells assessed as increase in cyclin E1 expression measured after 48 hrs by Western blot analysis; format: functional, cell-based; details: dose 5-10 µM
[32] = test system: HCCLM3; test: Induction of vimentin protein expression in human HCCLM3 cells at 5 to 10 uM measured after 48 hrs incubation by Western blot analysis; format: functional, cell-based; details: dose 5-10 µM
[33] = test system: MHCC97H; test: Inhibition of chondroitin sulfate in human MHCC97H cells assessed as fluorescence at 5 to 10 uM measured after 48 hrs incubation by immunofluorescence staining analysis; format: functional, cell-based; details: dose 5-10 µM
[34] = test system: MHCC97H; test: In vivo-antitumor activity against human MHCC97H cells xenografted BALB/c mouse model assessed as reduction in Ki-67 protein at 10 mg/kg, IG once daily measured after 31 days relative to control; format: functional, organism-based; details: time 31.0 day
[35] = test system: MHCC97H; test: Induction of N-cadherin protein expression in human MHCC97H cells at 5 to 10 uM measured after 48 hrs incubation by Western blot analysis; format: functional, cell-based; details: dose 5-10 µM
[36] = test system: HCCLM3; test: Induction of N-cadherin protein expression in human HCCLM3 cells at 5 to 10 uM measured after 48 hrs incubation by Western blot analysis; format: functional, cell-based; details: dose 5-10 µM
[37] = test system: MHCC97H; test: Induction of cell cycle related protein expression in human MHCC97H cells assessed as increase in p53 expression at 5 to 10 uM measured after 48 hrs by Western blot analysis; format: functional, cell-based; details: dose 5-10 µM
[38] = test system: MHCC97H; test: Inhibition of colony formation in human MHCC97H cells measured after 14 days by crystal violet staining based microscopy; format: functional, cell-based; details: dose 0.625-10 µM, time 14.0 day
[39] = test system: HCCLM3; test: Inhibition of chondroitin sulfate in human HCCLM3 cells assessed as fluorescence at 5 to 10 uM measured after 48 hrs incubation by immunofluorescence staining analysis; format: functional, cell-based; details: dose 5-10 µM
[40] = test system: MHCC97H; test: Induction of vimentin protein expression in human MHCC97H cells at 5 to 10 uM measured after 48 hrs incubation by Western blot analysis; format: functional, cell-based; details: dose 5-10 µM

## COc1cc2nccc(Oc3ccc(NC(=O)NC4CC4)c(Cl)c3)c2cc1C(N)=O [LENVATINIB]
[1]
  Activity: inactive
[2]
  inhibition: inactive
[3]
  Activity: inactive
[4]
  inhibition: inactive
[5]
  Activity: inactive
[6]
  inhibition: inactive
[7]
  Activity: inactive
[8]
  inhibition: inactive

## COC(=O)c1ccc2[nH]cc(C(=O)C(=O)NC3CCN(c4ccc(C)cc4Cl)C3=O)c2c1 (centres undefined)
[9]
  Activity: Active
[1]
  Activity: Active
[10]
  inhibition: Dose-Dependent Effect
[11]
  Activity: Dose-Dependent Effect
[12]
  Activity: Dose-Dependent Effect
[13]
  Activity: Active
[3]
  Activity: Active
[14]
  Activity: Active
[15]
  Activity: Active
[16]
  Activity: Active
[17]
  Activity: Active
[5]
  Activity: Active
[18]
  Activity: Active
[19]
  Activity: Active
[20]
  Activity: Active
[21]
  Activity: Active
[22]
  Activity: Active
[23]
  Activity: Active
[24]
  Activity: Dose-Dependent Effect
[25]
  Activity: Active
[26]
  Activity: Active
[27]
  Activity: Active
[28]
  Activity: Active
[29]
  Activity: Dose-Dependent Effect
[30]
  Activity: Dose-Dependent Effect
[31]
  Activity: Dose-Dependent Effect
[32]
  Activity: Active
[33]
  inhibition: Active
[34]
  Activity: Active
[35]
  Activity: Active
[36]
  Activity: Active
[7]
  Activity: Active
[37]
  Activity: Active
[38]
  inhibition: Dose-Dependent Effect
[39]
  inhibition: Active
[40]
  Activity: Active
